ChEMBL document CHEMBL1212923, “Synthesis and in vivo evaluation of phenethylpiperazine amides: selective 5-hydroxytryptamine(2A) receptor antagonists for the treatment of insomnia” (J Med Chem, 2010)

Tests used:
[1] = Protein binding in monkey plasma; type: ADME, cell-free, Macaca mulatta; conditions: rhesus monkey, read-out: PPB (converted)
Homo sapiens = species: Homo sapiens; test: Protein binding in human plasma; conditions: read-out: PPB (converted)

Cn1cc(Cl)c(C(=O)N2CCN(CC(=O)c3ccc(F)cc3)CC2)n1
fraction unbound [1]: 0.29 | fraction unbound (Homo sapiens): 0.31
